Experimental data: patent publication US20210115040A1, “OGA INHIBITOR COMPOUNDS” (Janssen Pharmaceutica NV, priority 2018, published 2021)

The chains behind the UniProt entries cited, without tags or fusion partners.
UniProt O60502, whole entry: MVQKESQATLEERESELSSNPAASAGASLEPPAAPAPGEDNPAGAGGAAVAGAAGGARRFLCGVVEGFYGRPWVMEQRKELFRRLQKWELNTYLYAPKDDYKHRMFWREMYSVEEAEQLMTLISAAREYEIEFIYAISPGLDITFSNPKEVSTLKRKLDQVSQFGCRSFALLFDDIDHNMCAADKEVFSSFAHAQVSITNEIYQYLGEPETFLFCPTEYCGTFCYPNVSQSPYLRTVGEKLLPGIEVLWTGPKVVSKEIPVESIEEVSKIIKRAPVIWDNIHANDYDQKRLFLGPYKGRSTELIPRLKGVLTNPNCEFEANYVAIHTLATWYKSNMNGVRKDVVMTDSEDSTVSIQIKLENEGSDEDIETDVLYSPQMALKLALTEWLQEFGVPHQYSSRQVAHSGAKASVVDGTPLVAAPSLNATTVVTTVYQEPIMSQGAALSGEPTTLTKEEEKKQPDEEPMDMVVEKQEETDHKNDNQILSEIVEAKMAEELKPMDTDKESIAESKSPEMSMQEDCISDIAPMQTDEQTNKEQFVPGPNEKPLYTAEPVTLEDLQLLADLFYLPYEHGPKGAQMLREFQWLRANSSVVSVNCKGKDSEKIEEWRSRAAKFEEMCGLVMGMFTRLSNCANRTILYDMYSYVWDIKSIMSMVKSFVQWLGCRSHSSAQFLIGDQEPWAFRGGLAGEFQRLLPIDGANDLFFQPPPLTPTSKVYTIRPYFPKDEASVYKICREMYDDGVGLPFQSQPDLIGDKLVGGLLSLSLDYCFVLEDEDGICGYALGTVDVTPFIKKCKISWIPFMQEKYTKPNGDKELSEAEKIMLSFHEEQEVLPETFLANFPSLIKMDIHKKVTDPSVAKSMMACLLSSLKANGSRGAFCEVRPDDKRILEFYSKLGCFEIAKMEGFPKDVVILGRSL

Legend:
[1] = molecular target: recombinant human Meningioma Expressed Antigen 5 (MGEA5), also referred to as O-GlcNAcase (OGA) (Homo sapiens, UniProt O60502); assay: OGA biochemical assay (inhibition of FM-GlcNAc hydrolysis, fluorescence); conditions: FM-GlcNAc substrate; for Enzymatic hOGA; pIC50: 6 h at room temperature; for Enzymatic Emax (%): maximal effect
From the text: The assay is based on the inhibition of the hydrolysis of fluorescein mono-β-D-N-Acetyl-Glucosamine (FM-GlcNAc) (Mariappa et al. 2015, Biochem J 470:255) by the recombinant human Meningioma Expressed Antigen 5 (MGEA5), also referred to as O-GlcNAcase (OGA). The hydrolysis FM-GlcNAc (Marker Gene technologies, cat #M1485) results in the formation of β-D-N-glucosamineacetate and fluorescein. The fluorescence of the latter can be measured at excitation wavelength 485 nm and emission wavelength 538 nm. An increase in enzyme activity results in an increase in fluorescence signal. Full length OGA enzyme was purchased at OriGene (cat #TP322411). The enzyme was stored in 25 mM Tris.HCl, pH 7.3, 100 mM glycine, 10% glycerol at −20° C. Thiamet G and GlcNAcStatin were tested as reference compounds (Yuzwa et al. 2008 Nature Chemical Biology 4:483; Yuzwa et al. 2012 Nature Chemical Biology 8:393). The assay was performed in 200 mM Citrate/phosphate buffer supplemented with 0.005% Tween-20. 35.6 g Na2HPO4 2H2O (Sigma, #C0759) were dissolved in 1 L water to obtain a 200 mM solution. 19.2 g citric acid (Merck, #1.06580) was dissolved in 1 L water to obtain a 100 mM solution. pH of the sodiumphosphate solution was adjusted with the citric acid solution to 7.2. The buffer to stop the reaction consists of a 500 mM Carbonate buffer, pH 11.0. 734 mg FM-GlcNAc were dissolved in 5.48 mL DMSO to obtain a 250 mM solution and was stored at −20° C. OGA was used at a 2 nM concentration and FM-GlcNAc at a 100 uM final concentration. Dilutions were prepared in assay buffer.
50 nl of a compound dissolved in DMSO was dispensed on Black Proxiplate™ 384 Plus Assay plates (Perkin Elmer, #6008269) and 3 μl fl-OGA enzyme mix added subsequently. Plates were pre-incubated for 60 min at room temperature and then 2 μl FM-GlcNAc substrate mix added. […] Plates were briefly centrifuged for 1 min at 1000 rpm and incubate at room temperature for 6 h. To stop the reaction 5 μl STOP buffer were added and plates centrifuge again 1 min at 1000 rpm. Fluorescence was quantified in the Thermo Scientific Fluoroskan Ascent or the PerkinElmer EnVision with excitation wavelength 485 nm and emission wavelength 538 nm.
For analysis a best-fit curve is fitted by a minimum sum of squares method. From this an IC50 value and Hill coefficient was obtained. High control (no inhibitor) and low control (saturating concentrations of standard inhibitor) were used to define the minimum and maximum values.

[2] = molecular target: OGA (Homo sapiens, UniProt O60502); assay: OGA cellular assay (ICC detection of O-GlcNAcylated proteins in HEK293 cells inducible for P301L mutant human Tau); conditions: for Cellular hOGA; pEC50: 6 hours incubation; for Cellular Emax (%): maximum = Thiamet G 200 uM
Method: HEK293 cells inducible for P301L mutant human Tau (isoform 2N4R) were established at Janssen. Thiamet-G was used for both plate validation (high control) and as reference compound (reference EC50 assay validation). OGA inhibition is evaluated through the immunocytochemical (ICC) detection of O-GlcNAcylated proteins by the use of a monoclonal antibody (CTD110.6; Cell Signaling, #9875) detecting 0-GlcNAcylated residues as previously described (Dorfmueller et al. 2010 Chemistry & biology, 17:1250). Inhibition of OGA will result in an increase of O-GlcNAcylated protein levels resulting in an increased signal in the experiment. Cell nuclei are stained with Hoechst to give a cell culture quality control and a rough estimate of immediate compounds toxicity, if any. ICC pictures are imaged with a Perkin Elmer Opera Phenix plate microscope and quantified with the provided software Perkin Elmer Harmony 4.1.
Cells were propagated in DMEM high Glucose (Sigma, #D5796) following standard procedures. 2 days before the cell assay cells are split, counted and seeded in Poly-D-Lysine (PDL) coated 96-wells (Greiner, #655946) plate at a cell density of 12,000 cells per cm^2 (4,000 cells per well) in 100 μl of Assay Medium (Low Glucose medium is used to reduce basal levels of GlcNAcylation) (Park et al. 2014 The Journal of biological chemistry 289:13519). At the day of compound test medium from assay plates was removed and replenished with 90 μl of fresh Assay Medium. 10 μl of compounds at a 10fold final concentration were added to the wells. Plates were centrifuged shortly before incubation in the cell incubator for 6 hours. DMSO concentration was set to 0.2%. Medium is discarded by applying vacuum. For staining of cells medium was removed and cells washed once with 100 μl D-PBS (Sigma, #D8537). From next step onwards unless other stated assay volume was always 50 μl and incubation was performed without agitation and at room temperature. Cells were fixed in 50 μl of a 4% paraformaldehyde (PFA, Alpha aesar, #043368) PBS solution for 15 minutes at room temperature. […] Before analysis samples were washed 2 times manually for 5 minutes in ICC base buffer.
Imaging is performed using Perkin Elmer Phenix Opera using a water 20× objective and recording 9 fields per well. Intensity readout at 488 nm is used as a measure of O-GlcNAcylation level of total proteins in wells. To assess potential toxicity of compounds nuclei were counted using the Hoechst staining. IC50-values are calculated using parametric non-linear regression model fitting. As a maximum inhibition Thiamet G at a 200 uM concentration is present on each plate. In addition, a concentration response of Thiamet G is calculated on each plate.

[3] = tested form: citrate (2 C6H8O7)

SMILES	Enzymatic hOGA; pIC50 [1, 3]	Enzymatic Emax (%) [1, 3]	Cellular hOGA; pEC50 [2, 3]	Cellular Emax (%) [2, 3]	Enzymatic hOGA; pIC50 [1]	Enzymatic Emax (%) [1]	Cellular hOGA; pEC50 [2]	Cellular Emax (%) [2]
Cc1cc(C[C@@H]2CCN([C@@H](C)c3cnc4sc(C)nc4c3)C2)cc(C)n1 (single isomer, unassigned)	6.2	93%	<6	−2%				
Cc1cc(C[C@@H]2CCN([C@H](C)c3cnc4sc(C)nc4c3)C2)cc(C)n1 (single isomer, unassigned)	7.8	100%	6.1	53%				
Cc1cc(C[C@H]2CCCN(C(C)c3cnc4nc(C)[nH]c4c3)C2)cc(C)n1 (stereo partly drawn)					7.9	100%	6.5	69%
Cc1cc(O[C@@H]2CCN(C(C)c3ccc4sc(C)nc4n3)C2)cc(C)n1 (stereo partly drawn)					6.5		<6	3%
